In PubChem BioAssay AID1235 (PCMD, 2008) one finds inhibition data, which are given here for 20 compounds.

One may read the inhibition as the change of the read-out against control, counted positive when it falls.

Each structure is given as a SMILES string. This is a selection; strong and weak results do not stand in their true shares. Activity calls are given as the source filed them.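 How the source made its calls: active means inhibition above 30% in each of the two pooled mixtures holding the compound, so the lower value exceeds 30%; inactive means the rest.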

The test can be described thus: blockers of serum C3 deposition on LPS – biochemical, ELISA, human serum, orthogonally pooled compounds, primary screen (AID 1235).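 Further: 0% = serum in Mg-EGTA without compound and 100% = EDTA serum blank.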 As to conditions: Human serum alternative complement pathway, LPS-coated ELISA, tested in compound mixtures, at 5 µM, stronger effect = higher value. In a few lines:
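Test system: human serum complement alternative pathway, C3 deposition onto LPS / Medium: Mg2+-EGTA GVB++ buffer containing human serum at 1:15 dilution / Probe or stimulus: Plate-bound LPS / Times: 1 h at 37 °C / Signal: ELISA with HRP anti-human C3 antibody, TMB substrate, absorbance 450 nm / Measure: percent inhibition / Repeats: two pool placements per compound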
A general note: An ELISA detects its analyte on a solid surface through an enzyme-linked reagent.
Consider `COC(=O)c1cc2c(s1)N=C(c1ccccc1)N(C)P2(=O)N1CCOCC1` (stereo not given), for which the inhibition was inactive: 13.2%.

For `O=P1(Nc2nc3ccc(Cl)cc3s2)COc2ccccc2O1` (stereo not given), the inhibition is inactive: 0.655%.

Turning to `O=P(Nc1nccs1)(c1ccccc1)c1ccccc1`, the inhibition is inactive: -5.88%.

Regarding `c1nnnn1CCn1cnnn1`, the inhibition was inactive: -18.9%.

In the case of `O=C(OC1CN2CCC1CC2)c1cccc(Cl)c1` (stereo not given), the inhibition is inactive: 10.8%.

Regarding `CCc1nc2c(n1)c1c(non1O)c1c2no[n+]1[O-]`, the inhibition is inactive: 10.8%.

For the compound `Cc1c2non([O-])c-2c(C)[n+](=O)[n+]1[O-]`, the inhibition was inactive: -4.97%.

With `O=C(OC1CN2CCC1CC2)C12CC3CC(CC(C3)C1)C2` (stereo not given), the inhibition was inactive: 18.1%.

Turning to `COP1(=S)c2c(C)nn(CCC#N)c2N=C(c2ccc(F)cc2)N1C` (stereo not given), the inhibition was inactive: 15.9%.

In the case of `O=C(COc1ccccc1)OC1CN2CCC1CC2` (stereo not given), the inhibition is inactive: 5.42%.

Take `O=P1(Nc2ncccn2)COc2ccccc2OC1`: the inhibition was inactive: 0.985%.

On to `O=P1(Nc2ccc(Br)cn2)COc2ccccc2OC1`, for which the inhibition is inactive: -3.48%.

In the case of `Cc1ccc(OCC(=O)OC2CN3CCC2CC3)cc1` (stereo not given), the inhibition was inactive: -14.2%.

Regarding `Cc1nn(-c2ccccc2)c2c1P(=O)(N1CCOCC1)N(C)C(c1ccccc1)=N2` (stereo not given), the inhibition is inactive: -16.6%.

Regarding `O=P1(Nc2ccccn2)COc2ccccc2OC1`, the inhibition was inactive: 4.88%.

As to `Clc1n[nH]nc1-c1nn[nH][15n]1`, the inhibition is inactive: 14%.

Consider `Cc1cccc(OCC(=O)OC2CN3CCC2CC3)c1` (stereo not given), for which the inhibition was inactive: -4.33%.

On to `CCOP1(=S)c2c(C)nn(CCC#N)c2N=C(c2ccc(F)cc2)N1C` (stereo not given), for which the inhibition was inactive: -1.84%.

Regarding `CCOP1(=S)c2c(C)nn(CCC#N)c2N=C(c2ccccc2F)N1C` (stereo not given), the inhibition was inactive: -3.95%.

In the case of `O=P(Nc1nccs1)(c1ccccc1)c1nc2ccccc2s1` (stereo not given), the inhibition was inactive: 6.21%.
